Literature values as cited in US20090088466A1, “OPIOID RECEPTOR LIGANDS” (priority 2005, published 2009).

Chains of the proteins cited; added tags and fusions are not shown. Lines headed by an entry give the natural chain unless they say otherwise; changes in a name come on top.
UniProt P41145: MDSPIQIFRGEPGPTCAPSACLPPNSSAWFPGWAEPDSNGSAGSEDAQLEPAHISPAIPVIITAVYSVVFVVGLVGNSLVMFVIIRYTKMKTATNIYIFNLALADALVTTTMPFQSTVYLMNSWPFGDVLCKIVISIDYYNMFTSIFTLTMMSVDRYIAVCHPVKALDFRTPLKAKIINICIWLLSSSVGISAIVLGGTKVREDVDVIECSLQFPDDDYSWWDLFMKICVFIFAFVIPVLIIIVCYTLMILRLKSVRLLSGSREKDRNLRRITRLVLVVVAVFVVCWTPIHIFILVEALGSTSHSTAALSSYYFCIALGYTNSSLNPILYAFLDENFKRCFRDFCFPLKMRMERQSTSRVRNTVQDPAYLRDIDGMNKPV

Molecular target: κ receptors (Homo sapiens, UniProt P41145)
Settings: cited from earlier work

COC(=O)[C@@H]1C[C@H](OC(C)=O)C(=O)[C@H]2[C@@]1(C)CC[C@H]1C(=O)O[C@H](c3ccoc3)C[C@]21C [Salvinorin A]
selectivity for κ receptors over μ and δ opioid receptors: very selective
